Data as given in article PMC4032190 (Journal of medicinal chemistry, 2014).

System: XBP-1s expression
Assay: Inhibition of XBP-1s expression in LPS-stimulated wild-type mouse B cells
Settings: 20 µM, 24 h, immunoblot

In the case of `C=CCOC(=O)N1CCc2c(c(=O)oc3c(C(=O)OC)c(O)ccc23)C1` [Compound 41, 3-Allyl 7-methyl 8-hydroxy-5-oxo-4,5-dihydro-1H-chromeno[3,4-c]pyridine-3,7(2H)-dicarboxylate], the “inhibition of XBP-1s expression” value is reported as “little to no inhibitory effect”.
